Values quoted from earlier work, collected in patent US20240165107A1, “Long Acting Injectable Compositions of Cariprazine or its Pharmaceutically Acceptable Salts” (Cipla Limited, priority 2021, published 2024).

Protein sequences, listed by entry. Tags and fused reporters are not part of them.
UniProt P14416, whole entry: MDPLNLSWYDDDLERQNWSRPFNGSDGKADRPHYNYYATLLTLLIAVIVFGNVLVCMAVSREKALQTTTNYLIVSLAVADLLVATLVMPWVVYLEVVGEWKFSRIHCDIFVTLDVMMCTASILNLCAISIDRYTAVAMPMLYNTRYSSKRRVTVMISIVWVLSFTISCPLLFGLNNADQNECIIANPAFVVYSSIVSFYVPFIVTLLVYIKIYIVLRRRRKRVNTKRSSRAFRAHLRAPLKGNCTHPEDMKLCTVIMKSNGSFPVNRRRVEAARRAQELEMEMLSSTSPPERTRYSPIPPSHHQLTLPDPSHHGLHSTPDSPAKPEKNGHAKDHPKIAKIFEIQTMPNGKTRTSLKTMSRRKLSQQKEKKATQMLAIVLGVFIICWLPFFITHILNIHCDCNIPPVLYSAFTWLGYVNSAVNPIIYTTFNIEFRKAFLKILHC

Biological target: dopamine D2 receptors (Homo sapiens, UniProt P14416)
Conditions: partial agonist

binding affinity: high binding affinity
Structure (SMILES): CN(C)C(=O)N[C@H]1CC[C@H](CCN2CCN(c3cccc(Cl)c3Cl)CC2)CC1 [Cariprazine, trans-N-{4-[2-[4-(2,3-dichlorophenyl)piperazine-1-yl]ethyl]cyclohexyl}-N′,N′-dimethylurea]
